Reference: patent US11713337B2, “Peptide, compositions and method for delivery of agents into cells and tissues” (priority 2019, dated 2023)

Test system: MNU induced apoptosis in the retina
Experiment: MNU induced apoptosis in the retina, TUNEL staining
Format: in vivo, C57BL/6J mice
Details: 1.4 μg XIAP with or without 0.4 μg Nuc1 intravitreal 4 h before 50 mg/kg MNU i.p.; eyes 24 hours later; ONL
Text: Programmed cell death or apoptosis is a common pathway activated as a consequence of retinal degeneration in diseases such as retinitis pigmentosa (Cottet and Schorderet, 2009). […] As an alternative to transgene delivery, one may envisage delivery of XIAP protein for the treatment of retinal degenerative diseases. This method of treatment is analogous to the current standard of care for the wet form of age-related macular degeneration (AMD, see below), whereby a recombinant protein (e.g. aflibercept) is injected intravitreally to target VEGF. Relative to gene delivery, protein delivery may be more readily titrated for dosing regimens. lntraperitoneal injection of N-methyl-N-nitrosourea (MNU) in mice causes selective induction of apoptosis in the outer nuclear layer (ONL) of the retina and thus this model is useful for testing the efficacy of inhibitors of apoptosis ([…] et al., 2003). […] After 4 h, mice were injected intraperitoneally with 50 mg/lkg MNU. Some mice were injected intraperitoneally with PBS only, as a measure of background apoptosis in the retina. After an additional 24 hours, the eyes of mice were enucleated and processed as above. […] The eye sections were imaged and used for quantification of TUNEL positive cells using ImageJ (FIJI version and plug in) as described previously ([…] et al., 2015).

XIAP: purified functional recombinant human XIAP
reduction in the number of TUNEL positive cells relative to MNU only: 2.2%
